IC50 data for 1 compound are collected here from patent US11591365B2, “BCL9 peptides and variants thereof” (WntRx Pharmaceuticals Inc., priority 2017, dated 2023).

This assay deals with Colo320DM. Kind of assay: Colo320DM cell viability. In kind it is cell-based, human. From the text: In some embodiments, a polypeptide described herein inhibits binding of BLC9 to β-catenin when assessed in a cell-viability assay. In some embodiments, the cell-viability assay is a CellTiterGlo luminescent assay, wherein the viability of cells is quantitatively measured. Various cell lines, transformed cell lines or primary cells derived from a healthy subject or subject suffering from a disease can be used in this assay.

In turn, `CC[C@H](C)[C@@H]1NC(=O)[C@@](C)(NC(=O)[C@H](CCCNC(=N)N)NC(=O)[C@H](CC(C)C)NC(=O)[C@@H](NC(=O)[C@H](CCC(N)=O)NC(=O)[C@H](CC(C)C)NC(=O)[C@H](CO)NC(=O)[C@H](CCCNC(=N)N)NC(=O)[C@H](CCC(N)=O)NC(=O)[C@H](CCCNC(=N)N)NC(=O)[C@H](Cc2c[nH]cn2)NC(C)=O)[C@@H](C)O)CCCC=CCCC[C@@](C)(C(=O)N[C@@H](CC2CCC2)C(=O)N[C@@H](Cc2ccc3ccccc3c2)C(=O)NCCC(=O)NCCC(N)=O)NC(=O)[C@H](CCCNC(=N)N)NC(=O)[C@H](CCC(N)=O)NC1=O` [SEQ ID NO: 148, HRQRSLQTLRXIQRX(CBA)(2-Nal)(β-Ala)(β-Ala)] gave an IC50 of 2600 nM.
